Literature values in patent US20190151329A1, “THERAPEUTIC USE OF DIAMINOPHENOTHIAZINES” (WisTa Laboratories Ltd., priority 2007, published 2019).

Legend:
[1] = rat; 2 minutes following administration; cited from earlier work
[2] = human; 10 mg oral; urinary excretion data; cited from earlier work

**Q.** Which results are given for CN(C)c1ccc2nc3ccc(=[N+](C)C)cc-3sc2c1 [MTC, methylthioninium chloride]?
**A.** intravenous dose recovered in heart, lung, liver and kidney [1]: 29.8%; VcF (Vc × F), Free (Ox-MTC) [2]: 29.7918 L
